Values quoted from earlier work as cited in patent publication US20240408074A1, “METHODS FOR THE TREATMENT AND PREVENTION OF NON-VIRAL TICK-BORNE DISEASES AND SYMPTOMS THEREOF OF” (60 DEGREES PHARMACEUTICALS LLC, priority 2023, published 2024).

Test system: P. falciparum
Settings: in vivo; cited from earlier work

SMILES: COc1cc(NC(C)CCCN)c2ncccc2c1 (stereo not shown) [primaquine]
- activity against the blood stages of P. falciparum: only weak activity
